Apparent affinities of Ab-95 variants for a coronavirus HR2 peptide

From the AlphaSeq antibody data of Engelhart et al. 2022 (doi:10.1038/s41597-022-01779-4), copy in the FLAb collection.

Antigen: PDVDLGDISGINAS, a 14-residue peptide of the SARS-CoV-2 spike HR2 region.

Ab-95 is the parent antibody, in scFv form: VH, then a 15-residue (Gly4Ser)3 linker, then VL. The heavy chain is unchanged in all variants.
VH: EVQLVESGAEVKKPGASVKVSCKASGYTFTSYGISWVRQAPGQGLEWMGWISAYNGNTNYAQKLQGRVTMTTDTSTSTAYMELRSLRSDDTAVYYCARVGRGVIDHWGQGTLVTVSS
VL: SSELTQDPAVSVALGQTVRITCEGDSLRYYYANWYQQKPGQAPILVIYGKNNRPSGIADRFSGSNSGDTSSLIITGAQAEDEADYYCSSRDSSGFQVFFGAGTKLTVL

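The library (AAYL52) carries one to three amino acid substitutions per variant, with no insertions or deletions. The scFvs were displayed on barcoded MATa yeast, the peptide on MATalpha yeast. Pairs that bind mate more often; barcode pairs of the diploids are counted by sequencing. The ratio of observed to expected reads was calibrated, replicate by replicate, on BCL2-family standards whose Kd was known from biolayer interferometry. There are three technical replicates.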

Variants are written as CDR1, CDR2 and CDR3 of the light chain (limits as in the source). Parent: EGDSLRYYYAN, GKNNRPS, SSRDSSGFQVF. Scale: log10 of Kd in nM, estimated from mating counts; low values are strong binders. A pair that was not seen in that replicate is written "n.d."; this usually means weak binding, but a binder can also be missed.

| CDR-L1 | CDR-L2 | CDR-L3 | log10 Kd (nM) by replicate | control signals |
|---|---|---|---|---|
| GGDSLRYYYAN | GKNNRPS | SSRDSSGMQVY | 2.08 2.02 1.77 | 4 of 9 (4.21) |
| EGDSLRYYYTN | GKNKRPS | SSRGSSGFQVF | n.d. 3.02 3.48 | 0 of 9 |
| EGDSLRYYYAN | GKNNRPN | SSRISSYFQVF | 3.33 4.03 2.49 | 3 of 9 (3.60) |
| EGDSLRVYYAN | GENNRPS | SSVDSSGFQVF | n.d. 3.18 3.91 | 1 of 9 (4.36) |
| EIDSLRYYYAN | GKTNRPS | SMRDSSGFQVF | n.d. n.d. n.d. | 1 of 9 (4.34) |
| KGDSLRYYYAN | GKNNRDS | SSRDSSGFQVF | 3.74 2.81 2.22 | 0 of 9 |
| EEDSMRYYYAN | GKNNRPA | SSRDSSGFQVF | n.d. 4.78 2.91 | 3 of 9 (4.19) |
| EGDSLRYYHAN | GWNNRPS | WSRDSSGFQVF | 3.70 5.37 3.79 | 1 of 9 (4.17) |
| EGDSLLYYYAN | GKNNRPS | SSRDSYGKQVF | 3.63 3.38 2.83 | 3 of 9 (4.17) |
| EGDSLRYYYNN | GCNNRPS | SSRVSSGFQVF | n.d. n.d. n.d. | 2 of 9 (3.33) |
| EGDSLRYYYAN | GDNNRWS | SSNDSSGFQVF | 3.50 5.32 4.30 | 3 of 9 (3.32) |
| EGDSNRYYYAN | GKNNLPS | SSVDSSGFQVF | n.d. n.d. n.d. | 3 of 9 (3.46) |
| EGDSEQYYYAN | GKNNRPS | SSRDSLGFQVF | 2.85 2.28 n.d. | 0 of 9 |
| EGDSLRYVYAS | GKNNRPS | SSRDSSGCQVF | 3.43 n.d. 4.66 | 6 of 9 (4.45) |
| EYDSLRYYYAN | GNNNRPS | SSRDFSGFQVF | 3.36 2.61 n.d. | 4 of 9 (3.87) |
| EGDSLRYYYAN | GKNPRPS | SSRDSSGFQII | 3.65 3.54 n.d. | 6 of 9 (3.83) |
| EGDVLRYYYAN | GKNNRPS | SSRDSLGFQFF | n.d. 3.89 n.d. | 5 of 9 (3.93) |
| EGDSLRYYYAN | GPNNRPS | SSRDISGFQCF | 3.08 3.83 2.97 | 4 of 9 (4.21) |
| EGDSLRYYYAN | AKNNRPS | SSGDSSSFQVF | 4.08 4.16 n.d. | 4 of 9 (3.59) |
| EGDHLRYYYAN | TKNNRPS | SSRDSSGFQVF | 3.50 n.d. n.d. | 1 of 9 (4.52) |
| EGDSLRRYYAN | GVNNRPS | SSRDSSGFQVY | 3.01 2.97 2.98 | 5 of 9 (4.28) |
| EGDGLRYYYAN | GKCNRPS | SSRDSSGFQVF | n.d. 5.33 3.40 | 2 of 9 (3.53) |
| EGTQPRYYYAN | GKNNRPS | SSRDSSGFQVF | 2.37 3.23 3.49 | 0 of 9 |
| EGDSLRYDYGN | GKNNRPS | SSRDSSGFQVL | 3.13 2.91 4.71 | 4 of 9 (4.18) |
| ELDSLRYYPAN | GKNNRPS | SSRDHSGFQVF | 2.63 2.76 2.93 | 4 of 9 (3.84) |
| EGDSLRYEYAG | GKNNRPS | SSRDSSGFQLF | n.d. n.d. n.d. | 2 of 9 (3.91) |
| EGMSLIYYYAN | GQNNRPS | SSRDSSGFQVF | 3.74 5.64 3.09 | 1 of 9 (3.49) |
| EGDSLWYYYAN | GKNNRWS | SSRDSSGFQVF | 3.61 n.d. n.d. | 1 of 9 (3.29) |
| EGDSLRYYHAN | SKNNRPS | SSRKSSGFQVF | 2.64 3.62 3.00 | 3 of 9 (3.89) |
| EGDSLIYYYMN | GCNNRPS | SSRDSSGFQVF | n.d. n.d. n.d. | 0 of 9 |

Picked from the list: the 3 lowest averages where every replicate gave a value.

CDR-L1	CDR-L2	CDR-L3	log10 Kd (nM) by replicate	control signals
GGDSLRYYYAN	GKNNRPS	SSRDSSGMQVY	2.08 2.02 1.77	4 of 9 (4.21)
ELDSLRYYPAN	GKNNRPS	SSRDHSGFQVF	2.63 2.76 2.93	4 of 9 (3.84)
KGDSLRYYYAN	GKNNRDS	SSRDSSGFQVF	3.74 2.81 2.22	0 of 9

Parent in this assay: reference entry 2.31, copy in this library 2.25. Background: pairings of library AAYL52 with three empty control strains gave a value in 28% of cases (median 3.91, 5th percentile 2.90). Values in that range, when seen in few replicates, are hard to tell from nonspecific mating. The control count says in how many pairings with the empty strains this scFv gave a signal, with their mean in brackets.